Results reported in patent EP0973746B1, “SUBSTITUTED 3-CYANO QUINOLINES” (Wyeth Holdings Corporation, priority 1997, dated 1998).

Amino acid sequences for entries named in this document (tags omitted). Residues count along the entry.
UniProt P29317, 24-976, species assumed: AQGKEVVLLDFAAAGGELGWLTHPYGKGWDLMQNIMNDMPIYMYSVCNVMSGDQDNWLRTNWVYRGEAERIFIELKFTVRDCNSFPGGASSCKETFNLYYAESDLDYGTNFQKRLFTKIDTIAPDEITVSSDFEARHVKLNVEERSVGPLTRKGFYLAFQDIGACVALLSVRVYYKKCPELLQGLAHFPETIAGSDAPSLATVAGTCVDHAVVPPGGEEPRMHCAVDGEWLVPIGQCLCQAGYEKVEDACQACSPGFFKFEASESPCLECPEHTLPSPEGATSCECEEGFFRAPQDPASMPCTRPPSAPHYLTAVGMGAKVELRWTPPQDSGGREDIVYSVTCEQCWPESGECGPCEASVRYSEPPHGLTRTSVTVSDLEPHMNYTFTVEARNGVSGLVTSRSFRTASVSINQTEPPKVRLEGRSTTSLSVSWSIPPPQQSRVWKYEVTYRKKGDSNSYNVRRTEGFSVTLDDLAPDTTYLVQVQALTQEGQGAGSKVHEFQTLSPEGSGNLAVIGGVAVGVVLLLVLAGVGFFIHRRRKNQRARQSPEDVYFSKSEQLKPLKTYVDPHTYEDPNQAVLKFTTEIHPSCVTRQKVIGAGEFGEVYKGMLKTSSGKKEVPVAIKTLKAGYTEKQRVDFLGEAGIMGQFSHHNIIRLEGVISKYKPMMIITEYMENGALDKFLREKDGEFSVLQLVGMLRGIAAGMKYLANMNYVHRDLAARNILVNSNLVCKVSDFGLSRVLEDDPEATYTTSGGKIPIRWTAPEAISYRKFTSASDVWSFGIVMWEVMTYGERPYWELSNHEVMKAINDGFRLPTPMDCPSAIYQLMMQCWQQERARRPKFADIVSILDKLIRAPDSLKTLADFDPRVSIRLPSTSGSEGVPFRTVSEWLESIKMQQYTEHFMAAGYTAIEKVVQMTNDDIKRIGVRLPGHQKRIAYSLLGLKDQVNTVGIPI

Experiments:
SKBR3 = experiment: Inhibition of cancer cell growth as measured by cell number, SKBR3; assay type: cell-based, human; settings: Table 8; for IC50: Homo sapiens, SK-BR-3, 48 h, read-out: IC50 SKBR3, cell number, Sulforhodamine B, 48 hours exposure;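 for all read-outs here: SK-BR-3 cells were selected as a line overexpressing HER2/neu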
[1] = molecular target: Epithelial Cell Kinase (ECK) (Homo sapiens, UniProt P29317); experiment: biochemical; settings: nonradioactive format
[2] = system: human epidermoid tumors (A431); experiment: In vivo inhibition of the growth of human epidermoid tumors (A431)
Description: Representative compounds of this invention (listed below) were evaluated in an in vivo standard pharmacological test procedure which measured its ability to inhibit the growth of human epidermoid tumors. […] BALB/c nu/nu female mice (Charles River, Wilmington, MA) were used in this in vivo standard pharmacological test procedure. A unit of 5 X 10^6 cells were injected SC into mice. When tumors attained a mass of between 100 and 150 mg, the mice were randomized into treatment groups (day zero). […] Control animals received no drug. Tumor mass was determined every 7 days [(length X width^2)/2] for 28 days post staging. Relative tumor growth (Mean tumor mass on days 7, 14, 21, and 28 divided by the mean tumor mass on day zero) is determined for each treatment group.

[3] = Table 11, 80 mg/kg/dose IP on days 1,5 and 9
[4] = Table 11, 80 mg/kg/dose PO on days 1 through 10
[5] = 10 mg/kg/dose IP on days 1 through 10
[6] = 50 mg/kg/dose IP on days 1 through 10
[7] = 100 mg/kg/dose IP on days 1 through 10

COc1cc2ncc(C#N)c(Nc3cccc(Br)c3)c2cc1NC(=O)C=CCN1CCOCC1 [Example 200, 4-Morpholin-4-yl-but-2-enoic acid [4-(3-bromo-phenylamino)-3-cyano-7-methoxy-quinolin-6-yl]-amide]
IC50 (SKBR3): 0.247 µg/mL (≈ 0.473 µM)

CCOc1cc2ncc(C#N)c(Nc3cccc(Br)c3)c2cc1NC(=O)C=CCN(CC)CC [Example 217, 4-Diethylamino-but-2-enoic acid [4-(3-bromo-phenylamino)-3-cyano-7-ethoxy-quinolin-6-yl]-amide]
IC50 (SKBR3): 0.019 µg/mL (≈ 0.0364 µM) | IC50 SKBR3 (SKBR3; cell number, Sulforhodamine B, 48 hours exposure): 0.033 µg/mL (≈ 0.0632 µM)

COc1cc2ncc(C#N)c(Nc3ccc(F)c(Br)c3)c2cc1NC(=O)C=CCN(C)C [Example 208, 4-Dimethylamino-but-2-enoic acid [4-(3-bromo-4-fluorophenylamino)-3-cyano-7-methoxy-quinolin-6-yl]-amide]
IC50 ([1]; Eck IC50, pH 7.2): > 40.1 µM | Relative Tumor Growth Day 7 [2, 3]: 0.82 | Relative Tumor Growth Day 14 [2, 3]: 2.29 | Relative Tumor Growth Day 21 [2, 3]: 4.80 | Relative Tumor Growth Day 28 [2, 3]: 8.09 | Relative Tumor Growth Day 7 [2, 4]: 0.40 | Relative Tumor Growth Day 14 [2, 4]: 0.99 | Relative Tumor Growth Day 21 [2, 4]: 1.46 | Relative Tumor Growth Day 28 [2, 4]: 2.63 | tumor growth relative to animals that did not receive any drug ([2]; summary in words of Tables 10 and 11): significantly inhibited tumor growth

CCOc1cc2ncc(C#N)c(Nc3cccc(Br)c3)c2cc1OCC [Example 47, 4-[(3-Bromophenyl)amino]6,7-diethoxy-3-quinolinecarbonitrile]
IC50 ([1]; Eck IC50, pH 7.2): > 24.3 µM | Relative Tumor Growth Day 7 [2, 5]: 3.22 | Relative Tumor Growth Day 14 [2, 5]: 6.75 | Relative Tumor Growth Day 21 [2, 5]: 13.38 | Relative Tumor Growth Day 28 [2, 5]: 18.59 | Relative Tumor Growth Day 7 [2, 6]: 2.05 | Relative Tumor Growth Day 14 [2, 6]: 5.04 | Relative Tumor Growth Day 21 [2, 6]: 10.02 | Relative Tumor Growth Day 28 [2, 6]: 14.01 | Relative Tumor Growth Day 7 [2, 7]: 1.57 | Relative Tumor Growth Day 14 [2, 7]: 3.36 | Relative Tumor Growth Day 21 [2, 7]: 5.90 | Relative Tumor Growth Day 28 [2, 7]: 5.85

COc1cc2ncc(C#N)c(Nc3cccc(CO)c3)c2cc1OC [Example 48, 4-[(3-(hydroxymethyl)phenyl)amino]-6,7-dimethoxy-3-quinolinecarbonitrile]
IC50 ([1]; Eck IC50, pH 7.2): > 59.6 µM

N#Cc1cccc(Nc2c(C#N)cnc3ccc(N)cc23)c1 [Example 162, 6-Amino-4-[(3-cyanophenyl)amino]-3-quinolinecarbonitrile]
IC50 ([1]; Eck IC50, pH 7.2): > 35.1 µM

COc1cc2ncc(C#N)c(Nc3cccc(Br)c3)c2cc1[N+](=O)[O-] [Example 6]
IC50 ([1]; Eck IC50, pH 7.2): > 25 µM

N#Cc1cnc2ccc([N+](=O)[O-])cc2c1Nc1cccc(Br)c1 [Example 13, 4-[(3-Bromophenyl)amino]-6-nitro-3-quinolinecarbonitrile]
IC50 ([1]; Eck IC50, pH 7.2): > 27.1 µM

N#Cc1cccc(Nc2c(C#N)cnc3ccc(NC(=O)C#CCN4CCCCC4)cc23)c1 [Example 161, N-{3-Cyano-4-[(3-cyanophenyl)amino]-6-quinolinyl}-4-piperidino-2-butynamide]
IC50 ([1]; Eck IC50, pH 7.2): > 46 µM

COc1cc2ncc(C#N)c(Nc3cccc(N)c3)c2cc1OC [Example 264, 4-(3-Aminophenylamino)-6,7-dimethoxy-3-quinolinecarbonitrile]
IC50 ([1]; Eck IC50, pH 7.2): > 62.4 µM

COc1cc2ncc(C#N)c(Nc3cc(C)ccc3O)c2cc1OC [Example 295, 4-(2-Hydroxy-5-methyl-phenylamino)-6,7-dimethoxy-quinoline-3-carbonitrile]
IC50 ([1]; Eck IC50, pH 7.2): > 29.8 µM

COc1cc2ncc(C#N)c(Nc3cc(C)c(O)c(C)c3)c2cc1OC [Example 288, 4-(4-Hydroxy-3,5-dimethyl-phenylamino)-6,7-dimethoxy-quinoline-3-carbinitile]
IC50 ([1]; read-out: Eck IC50, pH 7.2): 0.0014 µM

COc1cc2ncc(C#N)c(Nc3cc(Cl)ccc3O)c2cc1OC [Example 290, 4-(5-Chloro-2-hydroxy-phenylamino)-6,7-dimethoxy-quinoline-3-carbonitrile]
IC50 ([1]; Eck IC50, pH 7.2): > 28.1 µM

COc1cc2ncc(C#N)c(Nc3cccc(CCl)c3)c2cc1OC [Example 268, 4-[3-(Chloromethyl)phenylamino]-6,7-dimethoxy-3-quinolinecarbonitrile]
IC50 ([1]; Eck IC50, pH 7.2): > 56.5 µM

COc1cc2ncc(C#N)c(Nc3cccc(CS)c3)c2cc1OC [Example 270]
IC50 ([1]; Eck IC50, pH 7.2): < 0.0569 µM

Converted amounts (≈) assume the structure as drawn. Like-named read-outs stand apart in the source and are kept apart here.
